Earlier results, collected in article PMC10165945 (Journal of medicinal chemistry, 2013).

Tested on: neprilysin (NEP), endothelin-converting enzyme-1 (ECE1), ACE, and MMP-2 and -7
Conditions: previous work; cited from earlier work

Question: For `N=C(N)NCCC[C@H](NC(=O)[C@@H](CC(=O)NO)Cc1ccc2ccccc2c1)C(=O)N[C@@H](Cc1c[nH]c2ccccc12)C(=O)N[C@@H](CCC(=O)O)C(N)=O` [inhibitor 1a], which “selectivity for IDE vis-à-vis other zinc-metalloproteases” value is on record?
Answer: > 10^4 fold and ~ 10^4 fold

“And” between values parts separate entries of the source, which are not always exact repeats. Equal values may be shown once.
